# PMC5382891 (Scientific Reports, 2017)
# Sequences of proteins named here, by UniProt entry; tags and fusion partners are left off. A change or cut given only in a name is not applied to a line headed by its entry.
# UniProt P41146: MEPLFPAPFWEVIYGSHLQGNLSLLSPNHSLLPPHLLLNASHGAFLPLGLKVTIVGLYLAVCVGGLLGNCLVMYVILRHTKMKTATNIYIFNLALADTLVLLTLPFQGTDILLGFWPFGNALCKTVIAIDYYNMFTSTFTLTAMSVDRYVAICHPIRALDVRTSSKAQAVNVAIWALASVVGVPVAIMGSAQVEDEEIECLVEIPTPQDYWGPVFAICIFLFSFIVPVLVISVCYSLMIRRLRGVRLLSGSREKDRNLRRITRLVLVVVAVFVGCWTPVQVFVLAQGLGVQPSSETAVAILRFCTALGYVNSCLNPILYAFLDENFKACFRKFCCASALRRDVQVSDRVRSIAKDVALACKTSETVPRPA
# What was measured:
# [1] = target: human recombinant NOP receptor (Homo sapiens, UniProt P41146); conditions: for Emax ± SEM: mean ± SEM of at least 4 separate experiments in duplicate
# NOP = conditions: R isomer showing the higher affinity; cited from earlier work
SMILES,"pEC50(CL95%) ([1]; Table 3, CHO cells coexpressing NOP receptor and Gαqi5, mean of at least 4 separate experiments in duplicate, CL95% in brackets, * P < 0.05)",Emax ± SEM ([1]; Table 3),agonist behaviour (efficacy class) ([1]; calcium mobilization assay),difference in NOP affinity between the two enantiomers (NOP)
NC(=O)CCCCCCN1CN(c2ccccc2)C2(CCN(C3Cc4cccc5cccc3c45)CC2)C1=O (centres unmarked),8.24 (7.84–8.65),143 ± 9 percent fluorescence intensity over the basal values,–,–
O=C1NCN(c2ccccc2)C12CCN(C1Cc3cccc4cccc1c34)CC2 (centres unmarked),–,165 ± 14 percent fluorescence intensity over the basal values,full agonist activity,less than ten fold
